The target in assay [1] is T1, Non-receptor tyrosine-protein kinase TYK2 (Homo sapiens, UniProt P29597).
The target of assay [2] is T2, Tyrosine-protein kinase JAK2 (Homo sapiens, UniProt O60674).
Assay [3] concerns the target T2, Tyrosine-protein kinase JAK2. The source holds these as a separate data set.
Assay [4] concerns the target T1, Non-receptor tyrosine-protein kinase TYK2. The class given is cell-based, Sf9.
For assay [5], the target named is T3, Tyrosine-protein kinase JAK3 (Homo sapiens, UniProt P52333).
T3 sequence (P52333 whole entry): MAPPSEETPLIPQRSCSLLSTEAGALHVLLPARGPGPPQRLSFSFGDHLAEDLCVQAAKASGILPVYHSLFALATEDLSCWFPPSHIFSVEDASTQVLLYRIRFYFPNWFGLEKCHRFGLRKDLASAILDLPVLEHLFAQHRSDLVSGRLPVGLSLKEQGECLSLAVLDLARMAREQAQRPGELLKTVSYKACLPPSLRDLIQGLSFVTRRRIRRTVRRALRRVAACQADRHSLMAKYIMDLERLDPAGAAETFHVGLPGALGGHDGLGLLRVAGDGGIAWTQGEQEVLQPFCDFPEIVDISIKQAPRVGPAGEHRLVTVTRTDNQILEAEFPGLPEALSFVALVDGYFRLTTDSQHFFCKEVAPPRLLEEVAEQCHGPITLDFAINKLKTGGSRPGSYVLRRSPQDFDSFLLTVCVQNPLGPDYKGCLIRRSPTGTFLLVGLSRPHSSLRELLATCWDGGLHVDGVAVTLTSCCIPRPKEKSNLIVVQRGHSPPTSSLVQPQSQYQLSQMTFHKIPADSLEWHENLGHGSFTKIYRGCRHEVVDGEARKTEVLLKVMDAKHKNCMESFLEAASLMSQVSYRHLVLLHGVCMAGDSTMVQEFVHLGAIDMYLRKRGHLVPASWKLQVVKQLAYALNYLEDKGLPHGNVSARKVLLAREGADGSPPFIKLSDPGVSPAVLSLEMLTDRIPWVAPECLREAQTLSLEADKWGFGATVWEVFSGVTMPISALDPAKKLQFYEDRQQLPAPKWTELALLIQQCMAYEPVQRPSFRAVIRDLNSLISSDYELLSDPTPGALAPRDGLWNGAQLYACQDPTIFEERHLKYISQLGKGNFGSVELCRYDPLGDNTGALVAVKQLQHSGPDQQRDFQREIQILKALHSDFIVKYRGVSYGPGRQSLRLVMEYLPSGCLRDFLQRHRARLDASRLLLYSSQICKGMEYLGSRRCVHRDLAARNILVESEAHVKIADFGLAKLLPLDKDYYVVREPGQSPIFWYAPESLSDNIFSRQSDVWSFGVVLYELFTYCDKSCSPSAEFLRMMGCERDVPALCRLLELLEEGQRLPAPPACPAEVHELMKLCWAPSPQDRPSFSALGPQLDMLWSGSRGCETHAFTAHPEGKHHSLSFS

Amino acid sequences for entries named in this document (tags omitted). A change or cut given only in a name is not applied to a line headed by its entry.
UniProt P29597: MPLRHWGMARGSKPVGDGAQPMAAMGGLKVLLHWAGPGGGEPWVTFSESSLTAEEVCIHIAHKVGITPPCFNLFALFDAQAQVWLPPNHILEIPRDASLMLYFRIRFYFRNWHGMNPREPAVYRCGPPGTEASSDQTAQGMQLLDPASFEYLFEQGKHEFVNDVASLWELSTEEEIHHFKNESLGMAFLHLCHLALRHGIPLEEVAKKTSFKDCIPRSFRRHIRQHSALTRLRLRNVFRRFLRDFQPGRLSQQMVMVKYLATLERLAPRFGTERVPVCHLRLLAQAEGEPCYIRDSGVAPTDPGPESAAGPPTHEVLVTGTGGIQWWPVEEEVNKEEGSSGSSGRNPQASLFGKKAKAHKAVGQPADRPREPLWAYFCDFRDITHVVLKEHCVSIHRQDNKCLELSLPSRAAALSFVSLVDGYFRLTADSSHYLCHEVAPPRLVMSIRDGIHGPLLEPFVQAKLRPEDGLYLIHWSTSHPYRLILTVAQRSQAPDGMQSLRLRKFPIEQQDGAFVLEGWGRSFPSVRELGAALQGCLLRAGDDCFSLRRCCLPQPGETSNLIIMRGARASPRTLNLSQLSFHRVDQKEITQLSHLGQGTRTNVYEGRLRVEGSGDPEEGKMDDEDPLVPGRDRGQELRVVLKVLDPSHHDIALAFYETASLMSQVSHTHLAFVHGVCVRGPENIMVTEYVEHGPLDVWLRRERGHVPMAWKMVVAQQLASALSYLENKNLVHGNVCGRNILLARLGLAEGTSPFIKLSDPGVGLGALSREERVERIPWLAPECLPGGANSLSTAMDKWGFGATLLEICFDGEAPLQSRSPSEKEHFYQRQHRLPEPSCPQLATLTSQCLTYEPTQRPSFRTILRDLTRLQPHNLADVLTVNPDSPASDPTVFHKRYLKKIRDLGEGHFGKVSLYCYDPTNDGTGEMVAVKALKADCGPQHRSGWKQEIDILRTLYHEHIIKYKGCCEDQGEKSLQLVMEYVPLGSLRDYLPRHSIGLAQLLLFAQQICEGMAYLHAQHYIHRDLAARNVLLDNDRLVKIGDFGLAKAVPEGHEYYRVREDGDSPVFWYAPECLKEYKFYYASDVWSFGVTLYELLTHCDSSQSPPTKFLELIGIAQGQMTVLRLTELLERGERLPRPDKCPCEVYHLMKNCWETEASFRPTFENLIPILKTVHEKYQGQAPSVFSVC
UniProt O60674: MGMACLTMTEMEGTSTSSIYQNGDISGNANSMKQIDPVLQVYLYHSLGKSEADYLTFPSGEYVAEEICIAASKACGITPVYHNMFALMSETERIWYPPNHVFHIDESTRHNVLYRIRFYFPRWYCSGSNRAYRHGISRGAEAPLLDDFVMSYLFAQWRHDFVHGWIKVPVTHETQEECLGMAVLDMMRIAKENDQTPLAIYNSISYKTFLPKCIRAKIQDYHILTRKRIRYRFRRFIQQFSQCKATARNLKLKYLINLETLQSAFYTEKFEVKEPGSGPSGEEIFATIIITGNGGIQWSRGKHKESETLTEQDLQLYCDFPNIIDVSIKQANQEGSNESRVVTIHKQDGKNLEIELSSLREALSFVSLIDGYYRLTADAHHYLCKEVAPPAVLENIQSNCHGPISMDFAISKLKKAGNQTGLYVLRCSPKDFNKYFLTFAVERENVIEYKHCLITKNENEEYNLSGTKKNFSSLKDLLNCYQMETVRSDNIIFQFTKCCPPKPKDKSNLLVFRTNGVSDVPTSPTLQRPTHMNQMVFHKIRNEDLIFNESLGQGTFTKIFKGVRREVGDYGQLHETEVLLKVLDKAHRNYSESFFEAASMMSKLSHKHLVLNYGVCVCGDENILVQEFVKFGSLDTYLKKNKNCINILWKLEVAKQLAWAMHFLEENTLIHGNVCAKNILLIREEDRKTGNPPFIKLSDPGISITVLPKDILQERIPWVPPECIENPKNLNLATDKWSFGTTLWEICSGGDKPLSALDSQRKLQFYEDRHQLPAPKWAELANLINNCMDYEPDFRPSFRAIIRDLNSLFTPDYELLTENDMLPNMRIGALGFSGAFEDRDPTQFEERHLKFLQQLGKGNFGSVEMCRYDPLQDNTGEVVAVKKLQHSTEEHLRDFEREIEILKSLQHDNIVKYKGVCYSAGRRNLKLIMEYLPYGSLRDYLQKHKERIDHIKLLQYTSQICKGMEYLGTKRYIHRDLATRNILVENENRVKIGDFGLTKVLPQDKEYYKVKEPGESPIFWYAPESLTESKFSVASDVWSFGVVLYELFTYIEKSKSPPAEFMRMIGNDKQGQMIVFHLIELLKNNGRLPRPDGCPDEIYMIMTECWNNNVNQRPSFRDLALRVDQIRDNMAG

In ChEMBL document CHEMBL5360651, “Progress on the Pharmacological Targeting of Janus Pseudokinases” (J Med Chem, 2023) one finds IC50 data, which are given here for 1 compound.

By IC50 is commonly meant the concentration that inhibits the measured activity by half. A lower IC50 goes with higher potency. Turning to `c1nc2nc(Nc3ccc(N4CCOCC4)cc3)nc(NC3CCCCC3)c2[nH]1` [REVERSINE], the IC50 came out at 120 nM in assay [1]; 680 nM in assay [2]; 680 nM in assay [3]; 120 nM in assay [4]; 300 nM in assay [5].
